Reference: patent US9282737B2, “Agent for preventing pollen dispersal” (NOF Corporation, priority 2008, dated 2016)

Columns and labels:
[1] = tested on: Cryptomeria japonica male flower buds and needle leaves; assay: Evaluation 1: immersion test of Cryptomeria japonica; settings: immersed about 1 min in agent, browning inspected visually after one week
Experimental: Evaluation 1 (Immersion Test of Cryptomeria japonica)
First, as agents to be used for an immersion test of Cryptomeria japonica, fatty acid derivative, fatty acid, polyoxyalkylene derivative, fats and oils and the like shown in Tables 1 and 2 were prepared. Next, many branches (length about 10 cm) of Cryptomeria japonica with 15 male flower buds on the tip were taken from the same tree of Cryptomeria japonica, and each group (five leaves for one group) was immersed in the agents (100 ml) of Tables 1 and 2. After immersing for about 1 min, the branches were taken out from the liquid and placed in a beaker. Browning changes were inspected visually on the male flower buds and needle leaves after one week. The test was performed using Cryptomeria japonica of August and November.

HLB of agent = format: physicochemical

## polyoxyethylene sorbitan oleic acid ester [Example 6]
[1]; branches of August
  change of state of needle leaf (August): no change
[1]; branches of November
  change of state of needle leaf (November): no change
HLB of agent
  HLB: (HLB = 15.0)
